Key:
Type in all cases: functional, cell-based
BGC-823 = assay: Cytotoxicity against human BGC823 cells after 48 hrs by MTT assay
Outline: (§1)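 Cells seeded at 3500–13,000 per well. A549, HeLa and HepG2 were grown in DMEM and BGC-823 in RPMI 1640, each with 10% CS plus penicillin/streptomycin, at 37 °C and 5% CO₂. Drug exposure lasted 2 days, followed by MTT readout at A₄₉₂, with untreated controls at 0.6–0.8. IC50 was the concentration cutting absorbance by 50%, interpolated by sigmoidal nonlinear regression. Run in triplicate.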

HepG2 = assay: Cytotoxicity against human HepG2 cells after 48 hrs by MTT assay; outline: as §1
HeLa = assay: Cytotoxicity against human HeLa cells after 48 hrs by MTT assay; outline: as §1
A549 = assay: Cytotoxicity against human A549 cells after 48 hrs by MTT assay; outline: as §1

Measured: Activity

COc1cc([C@@H]2c3cc4c(cc3[C@@H](NC(=O)c3cnc(C)cn3)[C@H]3COC(=O)[C@H]23)OCO4)cc(OC)c1O
active: BGC-823 = Dose-dependent effect | HepG2 = Dose-dependent effect | HeLa Dose-dependent effect | A549 = Dose-dependent effect

COc1cc([C@@H]2c3cc4c(cc3[C@@H](OC(=O)c3ccc5ccccc5n3)[C@H]3COC(=O)[C@H]23)OCO4)cc(OC)c1O
active: BGC-823 = Dose-dependent effect | HepG2 = Dose-dependent effect | HeLa Dose-dependent effect | A549 = Dose-dependent effect

COc1cc([C@@H]2c3cc4c(cc3[C@@H](NC(=O)c3cnccn3)[C@H]3COC(=O)[C@H]23)OCO4)cc(OC)c1O
active: BGC-823 = Dose-dependent effect | HepG2 = Dose-dependent effect | HeLa Dose-dependent effect | A549 = Dose-dependent effect

COc1cc([C@@H]2c3cc4c(cc3[C@@H](OC(=O)c3cn(C5CC5)c5cc(Cl)c(F)cc5c3=O)[C@H]3COC(=O)[C@H]23)OCO4)cc(OC)c1O
active: BGC-823 = Dose-dependent effect | HepG2 = Dose-dependent effect | HeLa Dose-dependent effect | A549 = Dose-dependent effect

COc1cc([C@@H]2c3cc4c(cc3[C@@H](OC(=O)Cn3cnc5c3c(=O)n(C)c(=O)n5C)[C@H]3COC(=O)[C@H]23)OCO4)cc(OC)c1O
active: BGC-823 = Dose-dependent effect | HepG2 = Dose-dependent effect | HeLa Dose-dependent effect | A549 = Dose-dependent effect

COc1cc([C@@H]2c3cc4c(cc3[C@@H](NC(=O)Cn3cnc5c3c(=O)n(C)c(=O)n5C)[C@H]3COC(=O)[C@H]23)OCO4)cc(OC)c1O
active: BGC-823 = Dose-dependent effect | HepG2 = Dose-dependent effect | HeLa Dose-dependent effect | A549 = Dose-dependent effect

COc1cc([C@@H]2c3cc4c(cc3[C@@H](NC(=O)c3cc(O)c(O)c(O)c3)[C@H]3COC(=O)[C@H]23)OCO4)cc(OC)c1O
active: BGC-823 = Dose-dependent effect | HepG2 = Dose-dependent effect | HeLa Dose-dependent effect | A549 = Dose-dependent effect

COc1cc([C@@H]2c3cc4c(cc3[C@@H](OC(=O)c3cnc(C)cn3)[C@H]3COC(=O)[C@H]23)OCO4)cc(OC)c1O
active: BGC-823 = Dose-dependent effect | HepG2 = Dose-dependent effect | HeLa Dose-dependent effect | A549 = Dose-dependent effect

COc1cc([C@@H]2c3cc4c(cc3[C@@H](OC(=O)c3cnccn3)[C@H]3COC(=O)[C@H]23)OCO4)cc(OC)c1O
active: BGC-823 = Dose-dependent effect | HepG2 = Dose-dependent effect | HeLa Dose-dependent effect | A549 = Dose-dependent effect

From ChEMBL document CHEMBL3259751, “A rational design strategy of the novel topoisomerase II inhibitors for the synthesis of the 4-O-(2-pyrazinecarboxylic)-4'-demethylepipodophyllotoxin with antitumor activity by diminishing the relaxation reaction of topoisomerase II-DNA decatenation” (Bioorg Med Chem, 2014)
